Values of other authors, collected in US9744174B2 (DemeRx, Inc., priority 2013, dated 2017).

Conditions: according to US National highway traffic safety administration; cited from earlier work

CCC(=O)C(CC(C)N(C)C)(c1ccccc1)c1ccccc1 (stereo not shown) [Methadone, reference compound]
Therapeutic level: 0.03 to 0.56 mg/L
